{"source": "patent US20210023238A1", "about": "“TRIPTOLIDE ANTIBODY CONJUGATES” (City of Hope, priority 2019, published 2021)", "key": {"[1]": {"system": "H520 NSCLC cells", "test": "CCK-8 cell proliferation / cytotoxicity, H520", "assay_type": "cell-based", "details": "H520 (EGFR+/-), 72 h, CCK-8, 3.125-100 ug/ml tested", "method": "(§1) The cytotoxic effects of TPL, Cet, Cet-TPL on non-small cell lung cancer (NSCLC) cell proliferation was determined using Cell Counting Kit-8 (CCK-8) kit. H520, H1299, and A549 cells were plated at a density of 3×10^3 cells/well in 96-well multiplates. After 24 h, 3.125-100 ug/ml of IgG, Cetuximab, Cet-TPL-DAR-0.4, Cet-TPL-DAR-2, Cet-TPL-DAR-4, Cet-TPL-DAR-6 were added to wells respectively and further incubated with cells for 72 h. Then after, 10 ul of CCK-8 solution was added to each well and further developed for 2 h. The absorbance values were detected at a wavelength of 450 nm using a Bio-Rad microplate reader. The cell viability was calculated by the optical density (OD) values of treated groups/OD values of control groups (Vehicle/PBS)×100%. IgG was also used as a control for Cetuximab in some experiments."}, "[2]": {"system": "H1299 NSCLC cells", "test": "CCK-8 cell proliferation / cytotoxicity, H1299", "assay_type": "cell-based", "details": "H1299 (EGFR+++), 72 h, CCK-8, 3.125-100 ug/ml tested", "method": "as §1"}, "[3]": {"system": "NSCLC cells (H520, H1299, A549)", "test": "CCK-8 cell proliferation / cytotoxicity, NSCLC cell lines overall", "assay_type": "cell-based", "details": "regardless of EGFR expression level; result in words", "method": "as §1\nCetuximab-Triptolide conjugates have various cytotoxic effects in these cells."}, "[4]": {"system": "A549 NSCLC cells", "test": "CCK-8 cell proliferation / cytotoxicity, A549", "assay_type": "cell-based", "details": "A549 (EGFR+++), 72 h, CCK-8, 3.125-100 ug/ml tested", "method": "as §1"}, "[5]": {"system": "lung squamous cancer patient-derived xenograft 1 (PDX1)", "test": "PDX1 xenograft, Ki-67 immunohistochemistry", "assay_type": "in vivo, mice", "details": "PDX1 xenografts; compared to Vehicle and TPL or Cetuximab alone; FIG. 20", "method": "FIGS. 20A-20B present illustrative data showing the effects of Cetuximab-TPL on A549 xenografts. FIG. 20A immunohistochemistry staining of proliferation marker Ki-67 in PDX1 xenografts treated with either Vehicle (IgG, 50 mg/Kg, panel A), Triptolide (0.5 mg/Kg, panel B), Cetuximab (50 mg/Kg, panel C), or Cetuximab-TPL (50 mg/Kg, panel D). These images were taken at a magnification of ×200.\nNOD/SCID/IL2Rgamma null mice (NSG) mice (Jackson Labs, Bar Harbor, Me.; 24-27 g, 6-8 weeks of age) were used for xenograft experiment. A suspension of 5×10^6 A549 and H520 cancer cells in 0.1 ml DMEM or RPMI 1640 was mixed with 0.1 ml BD Matrigel™ (BD Science) and injected into the subcutaneous dorsa of mice at the proximal midline. When the tumor volume was about 90-110 mm^3, mice were randomized into 5 treatment groups, and each group included 8 mice. […] Xenograft growth in vivo was measured during whole period of treatment, and tumor volume were calculated and presented as\n(§2) The xenograft tissues were then fixed and analyzed by IHC. […] The positively stained cancer cells were counted, and the percentages of positively stained cancer cells to total cancer cells were quantitative analysed."}, "[6]": {"system": "A549 cells", "test": "Internalization: immunofluorescence of labeled Cet-TPL with LysoTracker", "assay_type": "cell-based", "details": "Alexa-red labeled Cet-TPL, LysoTracker Green; FIG. 25A", "source_text": "FIGS. 25A-25B present illustrative data showing internalization and distribution of Cetuximab-Triptolide (Cet-TPL) in EGFR-expressing cancer cells and xenografts."}, "[7]": {"system": "A549 xenografts", "test": "A549 xenograft, Ki-67 immunohistochemistry", "assay_type": "in vivo, mice", "details": "i.p. twice/week, compared to Vehicle and TPL or Cetuximab alone, FIG. 17", "method": "NOD/SCID/IL2Rgamma null mice (NSG) mice (Jackson Labs, Bar Harbor, Me.; 24-27 g, 6-8 weeks of age) were used for xenograft experiment. A suspension of 5×10^6 A549 and H520 cancer cells in 0.1 ml DMEM or RPMI 1640 was mixed with 0.1 ml BD Matrigel™ (BD Science) and injected into the subcutaneous dorsa of mice at the proximal midline. When the tumor volume was about 90-110 mm^3, mice were randomized into 5 treatment groups, and each group included 8 mice. Mouse treatment was performed by intraperitoneal injection of either Vehicle (PBS), 0.5 or 1.0 mg/Kg of Triptolide, 50 mg/Kg of Cetuximab, or 25 or 50 mg/Kg of Cetuximab-TPL in 100 μl of PBS, twice/week for about 2 to 3.5 weeks. Xenograft growth in vivo was measured during whole period of treatment, and tumor volume were calculated and presented as\nin unit of mm^3. At the end of experiment, mice were euthanized and xenograft tissues were removed and weighted. Exemplary results are shown in FIG. 15 and FIG. 18 (growth inhibition (size over time)) and FIG. 16 and FIG. 19 (in vivo antitumor effect (weight over time)).\nas §2"}}, "data": [{"substance": "CET-TRP DAR-0.4: Cetuximab-TPL conjugate, 5 eq TPL-NHS per Cetuximab, drug to antibody ratio 0.4", "values": [{"measurement": "IC50", "setting": "[1]", "value": 100, "unit": "µg/mL"}, {"measurement": "IC50", "setting": "[2]", "value": "~50", "unit": "µg/mL"}, {"measurement": "in vitro proliferation of NSCLC cells / cytotoxic effects", "setting": "[3]", "value": "the least efficient"}, {"measurement": "IC50", "setting": "[4]", "value": "<100", "unit": "µg/mL"}]}, {"substance": "CET-TRP DAR-2: Cetuximab-TPL conjugate, 10 eq TPL-NHS per Cetuximab, drug to antibody ratio 2", "values": [{"measurement": "IC50", "setting": "[1]", "value": "50 to 100", "unit": "µg/mL"}, {"measurement": "IC50", "setting": "[2]", "value": "<50", "unit": "µg/mL"}, {"measurement": "IC50", "setting": "[4]", "value": "<100", "unit": "µg/mL"}]}, {"substance": "CET-TRP DAR-4: Cetuximab-TPL conjugate, 20 eq TPL-NHS per Cetuximab small scale, drug to antibody ratio 4", "values": [{"measurement": "IC50", "setting": "[1]", "value": "50 to 100", "unit": "µg/mL"}, {"measurement": "IC50", "setting": "[2]", "value": "<25", "unit": "µg/mL"}, {"measurement": "in vitro proliferation of NSCLC cells / cytotoxic effects", "setting": "[3]", "value": "stronger than DAR-2"}, {"measurement": "IC50", "setting": "[4]", "value": "<50", "unit": "µg/mL"}]}, {"substance": "Cetuximab-TPL", "values": [{"measurement": "percentage of the Ki67-positive cancer cells", "setting": "[5]", "value": "significantly decreased"}, {"measurement": "localization of Cet-TPL and lysosome", "setting": "[6]", "value": "colocalization of Cet-TPL and lysosome stains"}, {"measurement": "percentage of the Ki67-positive cancer cells", "setting": "[7]", "value": "significantly decreased"}]}, {"substance": "cetuximab [reference compound]", "values": [{"measurement": "IC50", "setting": "[1]", "value": ">100", "unit": "µg/mL"}, {"measurement": "IC50", "setting": "[2]", "value": ">100", "unit": "µg/mL"}, {"measurement": "in vitro proliferation of NSCLC cells / cytotoxic effects", "setting": "[3]", "value": "did not significantly suppress"}, {"measurement": "IC50", "setting": "[4]", "value": ">100", "unit": "µg/mL"}]}]}
